From patent US20120301461A1 (Merck Sharp & Dohme, published 2012)

By UniProt entry, the sequences of proteins in these tests, tags left out. Residues count along the entry.
UniProt Q8NBP7, 31-692 limits assumed: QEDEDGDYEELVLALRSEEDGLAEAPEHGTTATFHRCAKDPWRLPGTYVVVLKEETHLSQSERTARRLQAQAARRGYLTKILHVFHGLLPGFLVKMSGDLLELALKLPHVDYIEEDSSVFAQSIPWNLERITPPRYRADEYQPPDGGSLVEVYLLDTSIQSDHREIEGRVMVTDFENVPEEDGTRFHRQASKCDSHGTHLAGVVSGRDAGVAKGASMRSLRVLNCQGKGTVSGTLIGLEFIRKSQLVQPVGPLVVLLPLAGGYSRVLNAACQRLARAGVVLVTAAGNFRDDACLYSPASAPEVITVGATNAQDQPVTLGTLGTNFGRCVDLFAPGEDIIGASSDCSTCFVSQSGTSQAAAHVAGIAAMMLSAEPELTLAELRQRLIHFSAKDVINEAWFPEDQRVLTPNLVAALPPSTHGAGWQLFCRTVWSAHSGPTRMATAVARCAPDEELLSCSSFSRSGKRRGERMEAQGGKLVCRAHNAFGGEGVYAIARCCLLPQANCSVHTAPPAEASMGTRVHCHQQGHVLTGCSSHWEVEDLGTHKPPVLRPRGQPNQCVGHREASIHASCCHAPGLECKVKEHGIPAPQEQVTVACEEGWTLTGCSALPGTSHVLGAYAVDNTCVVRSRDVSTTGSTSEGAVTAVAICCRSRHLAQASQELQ
UniProt Q80W65, 35-694 limits assumed: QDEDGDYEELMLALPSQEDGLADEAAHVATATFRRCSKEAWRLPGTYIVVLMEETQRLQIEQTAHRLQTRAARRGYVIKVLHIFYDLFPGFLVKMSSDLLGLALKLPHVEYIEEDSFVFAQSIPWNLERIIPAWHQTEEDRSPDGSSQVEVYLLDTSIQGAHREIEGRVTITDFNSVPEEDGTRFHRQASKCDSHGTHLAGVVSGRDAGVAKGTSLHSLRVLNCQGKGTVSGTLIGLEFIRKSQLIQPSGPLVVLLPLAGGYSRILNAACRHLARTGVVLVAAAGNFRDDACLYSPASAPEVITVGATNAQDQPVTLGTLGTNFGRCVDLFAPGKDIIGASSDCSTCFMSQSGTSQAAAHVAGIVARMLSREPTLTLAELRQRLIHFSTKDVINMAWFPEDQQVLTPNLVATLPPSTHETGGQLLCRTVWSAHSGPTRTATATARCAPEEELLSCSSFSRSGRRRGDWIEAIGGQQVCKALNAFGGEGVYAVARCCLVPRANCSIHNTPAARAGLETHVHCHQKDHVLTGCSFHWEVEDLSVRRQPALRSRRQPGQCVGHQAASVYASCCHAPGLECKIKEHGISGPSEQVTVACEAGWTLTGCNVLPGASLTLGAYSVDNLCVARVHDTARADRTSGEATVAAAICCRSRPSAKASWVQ

Legend:
[1] = target: T1, human PCSK9, V5- and His-tagged (hPCSK9v5His) (human, UniProt Q8NBP7 31-692); assay: SPR (Biacore 2000), Fab captured on anti-Fab IgG, PCSK9 in flow; mean N=3
T1 construct: Recombinant secreted protein; Peptides 31-49 (prodomain) and 153-; also called wt-hPCSK9; wt-PCSK9; not shown: V5 and His tags

[2] = target: T2, murine PCSK9, V5- and His-tagged (mPCSK9v5His) (murine, UniProt Q80W65 35-694); assay: as above
T2 construct: also called mouse PCSK9; not shown: V5 and His tags

[3] = target: T3, PCSK9 (V5/His-PCSK9; AlexaFluor647-labeled PCSK9), species not stated in Examples 8, 10 and 13 (UniProt Q8NBP7 31-692, limits assumed, AlexaFluor 647 label in Examples 8 and 10; unlabeled in Example 13); assay: TR-FRET PCSK9-1D05 competition assay: unlabeled Fab titrated against V5/His-PCSK9 (10 nM) with AF647-anti-V5 (10 nM); the competitor is Eu(8044)-1D05 IgG (~1.5 nM)
T3 construct: also called AF647-PCSK9; AF647-labeled WT PCSK9; not shown: V5 and His tags

[4] = target: T3, PCSK9 (V5/His-PCSK9; …); assay: TR-FRET PCSK9-LDLR interaction assay: antibody titrated against AF647-PCSK9 (10 nM) and Eu-labeled LDLR ectodomain (~1.5 nM); the blocked ligand is LDLR
[5] = target: T1, human PCSK9, V5- and His-tagged …; assay: cell-based or functional assay
[6] = target: T3, PCSK9 (V5/His-PCSK9; …); assay: cell-based or functional assay
[7] = target: T1, human PCSK9, V5- and His-tagged …; assay: SPR (Biacore 2000), IgG captured on goat anti-human IgG, PCSK9 in flow; mean N=2
[8] = target: T2, murine PCSK9, V5- and His-tagged …; assay: as above

B1: m2CX1D05 Fab (Fab, V domains shown)
VH: QVQLVQSGAEVKKPGSSVKVSCKASGGTFNSHAISWVRQAPGQGLEWMGGINPILGIANYAQKFQGRVTITADESTSTAYMELSSLRSEDTAVYYCARHYEIQIGRYGMNVYYLMYRFASWGQGTLVTVSS
VL: DIQMTQSPSSLSASVGDRVTITCRASQGIRSALNWYQQKPGKAPKLLIYNGSTLQSGVPSRFSGSGSGTDFTLTISSLQPEDFAVYYCQQFDGDPTFGQGTKVEIKR
notes: also called Fab 1D05; mPCSK9 2CX1D05 Fab
B1 gave a Kd [1] of 11.5 nM, a koff [1] of 0.000247 s⁻¹ and a kon [1] of 22000 M⁻¹ s⁻¹. For the same binder, the koff [2] was 0.000257 s⁻¹, the kon [2] was 86000 M⁻¹ s⁻¹ and the IC50 [3] was 33 nM. The IC50 [4] was 15.8 nM, the “IC50, inhibition of PCSK9-dependent loss of cellular LDL uptake (Exopolar assay, HEK cells, PCSK9 5 ug/ml)” value [5] was 144 nM and the “IC50, inhibition of uptake of AF647-labeled WT PCSK9 (5 ug/ml) into HEK293 or HepG2 cells, by imaging” value [6] was ~80 nM.

B2: 1D05 IgG2m4 (antibody, V domains shown)
VH: QVQLVQSGAEVKKPGSSVKVSCKASGGTFNSHAISWVRQAPGQGLEWMGGINPILGIANYAQKFQGRVTITADESTSTAYMELSSLRSEDTAVYYCARHYEIQIGRYGMNVYYLMYRFASWGQGTLVTVSS
VL: DIQMTQSPSSLSASVGDRVTITCRASQGIRSALNWYQQKPGKAPKLLIYNGSTLQSGVPSRFSGSGSGTDFTLTISSLQPEDFAVYYCQQFDGDPTFGQGTKVEIKR
notes: also called M2CX1D05 (IgG); IgG 1D05
B2 gave an IC50 [4] of 3.7 nM, a Kd [7] of 3.6 nM and a koff [7] of 0.000316 s⁻¹. For the same binder, the kon [7] was 88000 M⁻¹ s⁻¹, the koff [8] was 0.000215 s⁻¹ and the kon [8] was 67000 M⁻¹ s⁻¹. The “IC50, inhibition of PCSK9-dependent loss of cellular LDL uptake (Exopolar assay, HEK cells, PCSK9 5 ug/ml)” value [5] was 79 nM.
